Values quoted from earlier work as cited in US20040254238A1, “Bone growth stimulation with NO/statin and other NO modulating combinations” (OSTEOSCREEN, priority 2003, published 2004).

Test system: rats
Settings: injected locally into the subcutaneous tissues of rats; Wozney 1992; cited from earlier work

B1: BMP-2: recombinant bone morphogenic protein (protein, UniProt P12643 283-396, looked up)
Bone morphogenetic protein 2: QAKHKQRKRLKSSCKRHPLYVDFSDVGWNDWIVAPPGYHAFYCHGECPFPLADHLNSTNHAIVQTLVNSVNSKIPKACCVPTELSAISMLYLDENEKVVLKNYQDMVVEGCGCR
In the case of B1, the new bone formation is listed as “can induce new bone formation”.
